Experimental findings from ChEMBL document CHEMBL5120900, “Structure-Based Discovery of a Series of NSD2-PWWP1 Inhibitors” (J Med Chem, 2022) are described below.

This assay deals with T1, Histone-lysine N-methyltransferase NSD3 (Homo sapiens, UniProt Q9BZ95).
T1 sequence (Q9BZ95 whole entry): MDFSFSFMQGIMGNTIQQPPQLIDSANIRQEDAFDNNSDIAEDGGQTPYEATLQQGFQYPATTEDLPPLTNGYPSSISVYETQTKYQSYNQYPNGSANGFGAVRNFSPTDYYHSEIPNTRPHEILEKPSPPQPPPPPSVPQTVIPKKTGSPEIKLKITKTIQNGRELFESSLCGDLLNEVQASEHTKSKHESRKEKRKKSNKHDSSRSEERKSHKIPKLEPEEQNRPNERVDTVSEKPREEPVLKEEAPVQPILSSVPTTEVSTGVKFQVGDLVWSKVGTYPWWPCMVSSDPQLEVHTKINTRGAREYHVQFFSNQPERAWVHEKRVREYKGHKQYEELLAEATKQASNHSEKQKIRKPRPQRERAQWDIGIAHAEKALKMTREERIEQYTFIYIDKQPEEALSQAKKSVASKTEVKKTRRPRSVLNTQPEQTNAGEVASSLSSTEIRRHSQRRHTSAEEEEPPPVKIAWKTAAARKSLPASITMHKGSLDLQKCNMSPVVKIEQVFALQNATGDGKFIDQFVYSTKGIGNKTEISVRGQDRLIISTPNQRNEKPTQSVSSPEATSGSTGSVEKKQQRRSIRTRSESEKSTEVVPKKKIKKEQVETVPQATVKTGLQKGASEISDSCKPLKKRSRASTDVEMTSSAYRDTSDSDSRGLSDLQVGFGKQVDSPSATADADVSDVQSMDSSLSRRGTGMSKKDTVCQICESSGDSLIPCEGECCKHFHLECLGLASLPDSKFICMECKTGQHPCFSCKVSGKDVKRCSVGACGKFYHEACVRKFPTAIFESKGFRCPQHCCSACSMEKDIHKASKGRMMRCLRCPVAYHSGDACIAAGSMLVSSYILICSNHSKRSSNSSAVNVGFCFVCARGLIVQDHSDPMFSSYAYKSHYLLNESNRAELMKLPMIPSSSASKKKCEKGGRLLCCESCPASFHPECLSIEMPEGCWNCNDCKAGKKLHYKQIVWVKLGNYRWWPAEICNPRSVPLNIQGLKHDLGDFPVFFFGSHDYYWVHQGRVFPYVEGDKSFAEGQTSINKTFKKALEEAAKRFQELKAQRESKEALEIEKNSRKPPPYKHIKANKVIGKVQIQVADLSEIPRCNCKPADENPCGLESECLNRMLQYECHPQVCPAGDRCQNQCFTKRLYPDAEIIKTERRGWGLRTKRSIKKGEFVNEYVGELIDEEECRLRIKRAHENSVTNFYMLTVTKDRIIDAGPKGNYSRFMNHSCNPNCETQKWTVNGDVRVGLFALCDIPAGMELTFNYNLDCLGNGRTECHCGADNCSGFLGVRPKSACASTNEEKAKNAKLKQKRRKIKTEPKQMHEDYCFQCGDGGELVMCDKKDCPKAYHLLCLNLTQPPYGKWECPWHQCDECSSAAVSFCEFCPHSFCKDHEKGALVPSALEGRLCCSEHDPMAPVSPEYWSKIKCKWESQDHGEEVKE
Briefly: Inhibition of GST-tagged NSD3-PWWP1 domain (247 to 398 residues) (unknown origin) by TR-FRET assay. For orientation: In TR-FRET formats the signal depends on donor and acceptor labels being close together.

Consider `Cc1cc(CN)cc(C)c1-c1ncn(C)c1-c1ccnc2cc(F)ccc12`, for which the IC50 (as a rule, the concentration that inhibits the measured activity by half) came to 200 nM. This counts as sub-micromolar.
